Data as given in patent US10208081B2, “Bile acid derivatives as FXR/TGR5 agonists and methods of use thereof” (Enanta Pharmaceuticals, Inc., priority 2014, dated 2019).
pEC50: −log10 of the molar value.

Chains of the proteins cited; added tags and fusions are not shown.
UniProt Q96RI1, whole entry: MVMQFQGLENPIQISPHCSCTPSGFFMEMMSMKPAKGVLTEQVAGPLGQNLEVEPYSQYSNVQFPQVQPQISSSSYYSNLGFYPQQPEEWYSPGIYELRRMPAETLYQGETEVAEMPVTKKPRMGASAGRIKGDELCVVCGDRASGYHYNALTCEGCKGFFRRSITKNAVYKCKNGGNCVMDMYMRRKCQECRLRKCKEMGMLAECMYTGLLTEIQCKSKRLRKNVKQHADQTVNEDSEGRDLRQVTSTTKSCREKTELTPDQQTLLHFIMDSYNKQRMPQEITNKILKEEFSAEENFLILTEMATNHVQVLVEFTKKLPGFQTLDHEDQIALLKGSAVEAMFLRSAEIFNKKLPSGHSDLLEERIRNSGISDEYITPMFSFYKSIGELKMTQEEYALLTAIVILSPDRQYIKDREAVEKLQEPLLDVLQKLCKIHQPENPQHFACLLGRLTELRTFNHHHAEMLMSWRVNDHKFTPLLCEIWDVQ

Biological target: human FXR (NR1H4) (Homo sapiens (Human), UniProt Q96RI1)
Experiment: Human FXR (NR1H4) Assay (Gal4 promoter driven luciferase reporter, Indigo Bioscience kit IB00601)
Assay type: cell-based
Details: for Efficacy (%): efficacy normalized to CDCA set as 100%; for pEC50: potency ranges

Compound	Efficacy (%)	pEC50
CC[C@H]1[C@@H](O)[C@@H]2[C@H](CC[C@]3(C)[C@@H]([C@H](C)CCNC(=O)NS(=O)(=O)c4cccc5ccccc45)CC[C@@H]23)[C@@]2(C)CC[C@@H](O)C[C@@H]12	231%	> 7.00
CC[C@H]1[C@@H](O)[C@@H]2[C@H](CC[C@]3(C)[C@@H]([C@H](C)CNC(=O)NS(=O)(=O)c4ccc(OC(F)(F)F)cc4)CC[C@@H]23)[C@@]2(C)CC[C@@H](O)C[C@@H]12	219%	> 7.00
CC[C@H]1[C@@H](O)[C@@H]2[C@H](CC[C@]3(C)[C@@H]([C@H](C)C[C@H](C)NC(=O)NS(=O)(=O)C4CCCCC4)CC[C@@H]23)[C@@]2(C)CC[C@@H](O)C[C@@H]12	178%	5.00 to 6.00
CC[C@H]1[C@@H](O)[C@@H]2[C@H](CC[C@]3(C)[C@@H]([C@H](C)CNC(=O)NS(=O)(=O)N4CCCCC4)CC[C@@H]23)[C@@]2(C)CC[C@@H](O)C[C@@H]12	343%	6.00 to 7.00
CC[C@H]1[C@@H](O)[C@@H]2[C@H](CC[C@]3(C)[C@@H]([C@H](C)CCN(C)C(=O)NS(=O)(=O)c4ccc5ccccc5c4)CC[C@@H]23)[C@@]2(C)CC[C@@H](O)C[C@@H]12	228%	6.00 to 7.00
CC[C@H]1[C@@H](O)[C@@H]2[C@H](CC[C@]3(C)[C@@H]([C@H](C)CNC(=O)NS(=O)(=O)C4CCCCC4)CC[C@@H]23)[C@@]2(C)CC[C@@H](O)C[C@@H]12	350%	6.00 to 7.00
CC[C@H]1[C@@H](O)[C@@H]2[C@H](CC[C@]3(C)[C@@H]([C@H](C)CCN(C)C(=O)NS(=O)(=O)C4CCCCC4)CC[C@@H]23)[C@@]2(C)CC[C@@H](O)C[C@@H]12	217%	6.00 to 7.00
CC[C@H]1[C@@H](O)[C@@H]2[C@H](CC[C@]3(C)[C@@H]([C@H](C)CNC(=O)NS(=O)(=O)N4CCOCC4)CC[C@@H]23)[C@@]2(C)CC[C@@H](O)C[C@@H]12	264%	5.00 to 6.00
CC[C@H]1[C@@H](O)[C@@H]2[C@H](CC[C@]3(C)[C@@H]([C@H](C)CCNC(=O)NS(=O)(=O)NC(C)(C)C)CC[C@@H]23)[C@@]2(C)CC[C@@H](O)C[C@@H]12	343%	6.00 to 7.00
CC[C@H]1[C@@H](O)[C@@H]2[C@H](CC[C@]3(C)[C@@H]([C@H](C)CCNC(=O)NS(=O)(=O)c4ccccc4Cl)CC[C@@H]23)[C@@]2(C)CC[C@@H](O)C[C@@H]12	244%	6.00 to 7.00
CC[C@H]1[C@@H](O)[C@@H]2[C@H](CC[C@]3(C)[C@@H]([C@H](C)CNC(=O)NS(=O)(=O)c4ccc(C(C)(C)C)cc4)CC[C@@H]23)[C@@]2(C)CC[C@@H](O)C[C@@H]12	270%	> 7.00
